Data reported in patent US7034041B2 (priority 2000, dated 2006).
Like-named read-outs stand apart in the source and are kept apart here.

Sequences of proteins named here, by UniProt entry; tags and fusion partners are left off.
UniProt P33535, whole entry, looked up: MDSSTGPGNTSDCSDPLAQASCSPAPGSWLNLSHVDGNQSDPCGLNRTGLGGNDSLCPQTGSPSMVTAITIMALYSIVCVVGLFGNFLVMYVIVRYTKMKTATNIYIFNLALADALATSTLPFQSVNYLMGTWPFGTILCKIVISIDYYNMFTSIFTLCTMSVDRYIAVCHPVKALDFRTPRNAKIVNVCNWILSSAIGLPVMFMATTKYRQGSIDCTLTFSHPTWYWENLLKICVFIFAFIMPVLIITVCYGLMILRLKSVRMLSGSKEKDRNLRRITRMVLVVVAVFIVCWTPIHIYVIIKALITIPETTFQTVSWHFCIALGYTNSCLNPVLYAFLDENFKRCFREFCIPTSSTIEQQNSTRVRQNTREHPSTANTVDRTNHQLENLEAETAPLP
UniProt P35372, whole entry, looked up: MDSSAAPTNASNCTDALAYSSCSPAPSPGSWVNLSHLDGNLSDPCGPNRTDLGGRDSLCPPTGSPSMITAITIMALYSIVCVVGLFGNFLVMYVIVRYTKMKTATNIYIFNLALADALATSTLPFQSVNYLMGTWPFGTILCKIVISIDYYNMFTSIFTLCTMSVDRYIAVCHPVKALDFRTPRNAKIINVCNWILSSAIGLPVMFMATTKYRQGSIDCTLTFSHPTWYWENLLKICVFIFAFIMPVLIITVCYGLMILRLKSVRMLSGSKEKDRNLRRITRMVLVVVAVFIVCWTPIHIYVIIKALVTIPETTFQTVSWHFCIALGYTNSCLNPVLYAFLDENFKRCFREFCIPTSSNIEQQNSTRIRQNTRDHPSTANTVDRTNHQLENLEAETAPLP

Tests used:
[1] = system: phenylquinone-induced writhing reactions; experiment: Phenylquinone-induced writhing test in mice; details: 10 mg/kg i.v., phenylquinone i.p. 10 minutes after substance
[2] = system: (+)-MK801 binding site of the ionotropic NMDA receptor; experiment: NMDA receptor binding on rat brain membrane homogenates, (3H)-(+)-MK801; details: rat brain homogenate
μ-opiate receptor = μ-opiate receptor (Rattus norvegicus, UniProt P33535); experiment: μ-opiate receptor binding on rat brain membrane homogenates, tritiated naloxone; details: rat brain homogenate; for Ki: read-out: Naloxone Ki, 1 nmole/l tritiated naloxone; for Naloxone (value printed as %): tritiated naloxone, test concentration not given
human μ-opiate receptor = human μ-opiate receptor (Homo sapiens, UniProt P35372); experiment: Human μ-opiate receptor binding, CHO-K1 membrane preparation, [3H]-diprenorphine, SPA; details: read-out: Human μ-OR Binding Ki; CHO-K1 membranes, 1 nmole/l [3H]-diprenorphine
[3] = system: wind-up phenomenon (increased firing rate of spinal neurons); experiment: Inhibition of the wind-up phenomenon in rats; details: 21.5 mg/kg i.v.
[4] = read-out: MK801 Ki, 1 nmole/l (3H)-(+)-MK801, Table 2

SMILES	Ki [2, 4]	Ki (μ-opiate receptor)	further results
Cl.Fc1ccc(C2=CCN(C3(c4ccccc4)CCCCC3)CC2)cc1			% Inhibition of the Writhing Reactions [1]: 100%
COc1cccc(C2=CCN(C3(c4ccccc4)CCCCC3)CC2)c1	1600 nM	800 nM	
Cc1ccc(C2=CCN(C3(c4ccccc4)CCCCC3)CC2)cc1	4500 nM	300 nM	
Fc1ccc(C2=CCN(C3(c4ccccc4)CCCCC3)CC2)cc1	1700 nM	60 nM	
COc1ccc(C2=CCN(C3(c4ccccc4)CCCCC3)CC2)cc1	11100 nM		
Cl.Fc1cccc(C2=CCN(C3(c4ccccc4)CCCCC3)CC2)c1			% Inhibition of the Writhing Reactions [1]: 98%
Fc1cccc(C2=CCN(C3(c4ccccc4)CCCCC3)CC2)c1	3900 nM	200 nM	
Cc1cccc(C2=CCN(C3(c4ccccc4)CCCCC3)CC2)c1	1400 nM	400 nM	
Fc1ccccc1C1=CCN(C2(c3ccccc3)CCCCC2)CC1	600 nM	240 nM	Ki (human μ-opiate receptor): 210 nM; % Inhibition of the Writhing Reactions [1]: 72%; Ki ([2]; read-out: MK801 Binding Ki, (3H)-(+)-MK801, Table 3): 570 nM; inhibition of the wind-up phenomenon [3]: 70%
COc1ccccc1C1=CCN(C2(c3ccccc3)CCCCC2)CC1.Cl			Naloxone (value printed as %) (μ-opiate receptor): 50%
COc1ccc(C2=CCN(C3(c4ccccc4)CCCCC3)CC2)cc1.Cl			Naloxone (value printed as %) (μ-opiate receptor): 20%
COc1ccccc1C1=CCN(C2(c3ccccc3)CCCCC2)CC1	5200 nM		
